Results: ChEMBL document CHEMBL3297733, “Discovery and optimization of pyrrolo[1,2-a]pyrazinones leads to novel and selective inhibitors of PIM kinases” (Bioorg Med Chem, 2013)

By UniProt entry, the sequences of proteins in these tests, tags left out. Where a name states a change or a piece, a line headed by the entry shows the natural chain unless it says otherwise.
UniProt O43683: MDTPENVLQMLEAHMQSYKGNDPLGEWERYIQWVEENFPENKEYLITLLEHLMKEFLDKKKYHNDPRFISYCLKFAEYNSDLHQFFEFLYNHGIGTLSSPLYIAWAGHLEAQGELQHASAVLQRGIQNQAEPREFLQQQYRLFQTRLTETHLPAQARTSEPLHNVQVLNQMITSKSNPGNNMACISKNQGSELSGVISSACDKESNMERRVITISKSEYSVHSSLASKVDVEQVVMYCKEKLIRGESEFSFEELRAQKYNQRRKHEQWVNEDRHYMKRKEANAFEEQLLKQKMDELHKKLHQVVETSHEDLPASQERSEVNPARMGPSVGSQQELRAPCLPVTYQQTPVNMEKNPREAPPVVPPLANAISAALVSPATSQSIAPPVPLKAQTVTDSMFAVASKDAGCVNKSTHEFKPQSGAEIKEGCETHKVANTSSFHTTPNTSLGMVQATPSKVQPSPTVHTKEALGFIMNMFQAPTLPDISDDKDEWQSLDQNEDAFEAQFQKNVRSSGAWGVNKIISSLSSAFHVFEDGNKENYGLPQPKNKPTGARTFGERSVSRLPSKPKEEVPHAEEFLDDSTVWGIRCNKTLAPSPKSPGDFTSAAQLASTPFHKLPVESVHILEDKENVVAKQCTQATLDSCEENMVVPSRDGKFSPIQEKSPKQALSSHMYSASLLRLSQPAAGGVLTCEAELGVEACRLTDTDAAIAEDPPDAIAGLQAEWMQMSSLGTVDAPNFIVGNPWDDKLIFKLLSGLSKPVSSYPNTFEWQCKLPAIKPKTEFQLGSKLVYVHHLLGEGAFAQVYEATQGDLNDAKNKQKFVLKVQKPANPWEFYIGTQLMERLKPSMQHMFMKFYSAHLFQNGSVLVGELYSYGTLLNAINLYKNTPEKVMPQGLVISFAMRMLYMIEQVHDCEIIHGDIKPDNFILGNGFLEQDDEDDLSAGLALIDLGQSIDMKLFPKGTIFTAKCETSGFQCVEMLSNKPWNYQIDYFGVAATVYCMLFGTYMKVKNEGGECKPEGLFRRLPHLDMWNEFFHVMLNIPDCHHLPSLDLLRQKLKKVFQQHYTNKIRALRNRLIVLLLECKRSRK
UniProt Q16539, whole entry: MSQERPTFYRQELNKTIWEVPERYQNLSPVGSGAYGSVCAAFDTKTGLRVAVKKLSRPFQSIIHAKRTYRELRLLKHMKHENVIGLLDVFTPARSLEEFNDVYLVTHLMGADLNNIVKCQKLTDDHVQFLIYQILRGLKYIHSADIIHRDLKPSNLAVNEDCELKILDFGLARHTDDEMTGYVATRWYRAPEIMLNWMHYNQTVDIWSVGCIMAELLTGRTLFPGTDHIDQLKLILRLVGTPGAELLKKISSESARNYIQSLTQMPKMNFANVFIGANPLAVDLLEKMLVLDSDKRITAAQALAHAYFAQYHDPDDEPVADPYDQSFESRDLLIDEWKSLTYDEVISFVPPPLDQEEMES
UniProt Q9P289: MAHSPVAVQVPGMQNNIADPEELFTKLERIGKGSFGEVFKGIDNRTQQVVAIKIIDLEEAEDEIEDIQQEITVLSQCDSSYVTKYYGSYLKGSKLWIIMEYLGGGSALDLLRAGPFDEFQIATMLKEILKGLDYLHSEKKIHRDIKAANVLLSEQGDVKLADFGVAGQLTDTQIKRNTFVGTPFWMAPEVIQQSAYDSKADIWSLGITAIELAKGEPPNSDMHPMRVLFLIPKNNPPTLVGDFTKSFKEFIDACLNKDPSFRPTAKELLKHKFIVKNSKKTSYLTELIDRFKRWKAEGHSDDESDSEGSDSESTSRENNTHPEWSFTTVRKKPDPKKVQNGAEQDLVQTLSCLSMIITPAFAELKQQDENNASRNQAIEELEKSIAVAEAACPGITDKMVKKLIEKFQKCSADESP
UniProt Q96GD4, whole entry: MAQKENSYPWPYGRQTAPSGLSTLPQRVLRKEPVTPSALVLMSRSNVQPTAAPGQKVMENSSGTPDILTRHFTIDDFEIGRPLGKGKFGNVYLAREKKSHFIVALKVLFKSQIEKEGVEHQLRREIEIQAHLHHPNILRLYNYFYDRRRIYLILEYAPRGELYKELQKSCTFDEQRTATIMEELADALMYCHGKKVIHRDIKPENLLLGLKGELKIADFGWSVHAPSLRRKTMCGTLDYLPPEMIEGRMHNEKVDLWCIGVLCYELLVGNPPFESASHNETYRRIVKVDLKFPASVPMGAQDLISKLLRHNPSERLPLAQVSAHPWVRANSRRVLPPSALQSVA
UniProt P35968, whole entry: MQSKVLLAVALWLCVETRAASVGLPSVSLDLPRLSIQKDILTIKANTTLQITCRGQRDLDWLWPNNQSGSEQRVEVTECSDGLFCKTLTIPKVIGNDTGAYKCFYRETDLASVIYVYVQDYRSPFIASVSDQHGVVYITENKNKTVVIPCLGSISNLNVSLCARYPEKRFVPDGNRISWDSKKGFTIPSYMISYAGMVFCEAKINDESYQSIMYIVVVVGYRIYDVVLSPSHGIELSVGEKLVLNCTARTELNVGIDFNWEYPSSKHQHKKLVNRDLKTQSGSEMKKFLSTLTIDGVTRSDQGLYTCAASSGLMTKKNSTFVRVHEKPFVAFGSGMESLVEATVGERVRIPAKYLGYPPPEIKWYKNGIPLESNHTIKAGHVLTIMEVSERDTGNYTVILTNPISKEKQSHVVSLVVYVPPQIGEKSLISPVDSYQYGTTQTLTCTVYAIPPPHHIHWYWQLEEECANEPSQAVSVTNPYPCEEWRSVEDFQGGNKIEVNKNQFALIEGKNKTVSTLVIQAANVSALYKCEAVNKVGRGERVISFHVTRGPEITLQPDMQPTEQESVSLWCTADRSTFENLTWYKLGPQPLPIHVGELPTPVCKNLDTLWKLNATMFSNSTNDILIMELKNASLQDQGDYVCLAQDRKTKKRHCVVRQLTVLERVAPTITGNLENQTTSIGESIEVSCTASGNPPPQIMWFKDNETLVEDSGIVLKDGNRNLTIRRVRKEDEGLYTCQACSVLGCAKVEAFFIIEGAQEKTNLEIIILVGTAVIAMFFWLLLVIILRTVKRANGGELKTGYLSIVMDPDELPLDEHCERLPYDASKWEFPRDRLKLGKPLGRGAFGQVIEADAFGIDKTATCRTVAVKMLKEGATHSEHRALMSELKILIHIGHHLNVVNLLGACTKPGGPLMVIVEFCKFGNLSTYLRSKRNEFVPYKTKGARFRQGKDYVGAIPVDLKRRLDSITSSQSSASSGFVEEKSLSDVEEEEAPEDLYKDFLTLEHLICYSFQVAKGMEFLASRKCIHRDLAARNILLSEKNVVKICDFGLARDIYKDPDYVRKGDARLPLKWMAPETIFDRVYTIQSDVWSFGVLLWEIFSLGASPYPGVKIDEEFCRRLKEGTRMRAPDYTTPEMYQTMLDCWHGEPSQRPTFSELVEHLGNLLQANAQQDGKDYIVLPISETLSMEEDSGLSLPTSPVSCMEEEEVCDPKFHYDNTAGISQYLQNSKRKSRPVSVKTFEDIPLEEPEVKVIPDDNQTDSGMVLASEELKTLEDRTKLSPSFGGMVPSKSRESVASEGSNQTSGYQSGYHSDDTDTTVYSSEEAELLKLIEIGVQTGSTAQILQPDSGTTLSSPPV
UniProt P29317, whole entry: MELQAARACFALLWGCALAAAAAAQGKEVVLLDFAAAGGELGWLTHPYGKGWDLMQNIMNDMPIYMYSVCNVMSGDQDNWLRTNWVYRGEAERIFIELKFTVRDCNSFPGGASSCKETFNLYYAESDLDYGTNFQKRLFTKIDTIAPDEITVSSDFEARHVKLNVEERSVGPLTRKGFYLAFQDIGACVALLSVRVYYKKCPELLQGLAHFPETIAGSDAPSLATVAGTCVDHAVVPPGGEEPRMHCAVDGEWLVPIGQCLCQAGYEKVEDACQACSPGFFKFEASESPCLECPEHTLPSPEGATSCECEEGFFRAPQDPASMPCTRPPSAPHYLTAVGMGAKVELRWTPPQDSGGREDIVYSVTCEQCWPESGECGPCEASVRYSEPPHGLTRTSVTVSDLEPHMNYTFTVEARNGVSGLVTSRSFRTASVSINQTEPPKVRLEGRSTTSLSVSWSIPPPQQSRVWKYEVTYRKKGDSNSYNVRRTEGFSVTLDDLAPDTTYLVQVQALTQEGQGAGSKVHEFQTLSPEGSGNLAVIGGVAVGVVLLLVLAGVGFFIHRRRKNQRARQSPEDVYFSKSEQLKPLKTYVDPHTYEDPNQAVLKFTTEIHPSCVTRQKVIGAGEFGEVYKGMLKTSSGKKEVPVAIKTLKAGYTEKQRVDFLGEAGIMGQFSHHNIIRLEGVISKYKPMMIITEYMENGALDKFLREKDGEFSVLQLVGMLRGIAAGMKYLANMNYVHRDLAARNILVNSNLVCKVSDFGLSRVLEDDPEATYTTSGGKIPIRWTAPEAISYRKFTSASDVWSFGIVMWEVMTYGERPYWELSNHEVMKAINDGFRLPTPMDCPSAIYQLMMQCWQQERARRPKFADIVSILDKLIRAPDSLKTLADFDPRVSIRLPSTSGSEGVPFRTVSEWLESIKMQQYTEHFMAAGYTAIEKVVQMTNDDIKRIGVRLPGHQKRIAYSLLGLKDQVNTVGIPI
UniProt P04629: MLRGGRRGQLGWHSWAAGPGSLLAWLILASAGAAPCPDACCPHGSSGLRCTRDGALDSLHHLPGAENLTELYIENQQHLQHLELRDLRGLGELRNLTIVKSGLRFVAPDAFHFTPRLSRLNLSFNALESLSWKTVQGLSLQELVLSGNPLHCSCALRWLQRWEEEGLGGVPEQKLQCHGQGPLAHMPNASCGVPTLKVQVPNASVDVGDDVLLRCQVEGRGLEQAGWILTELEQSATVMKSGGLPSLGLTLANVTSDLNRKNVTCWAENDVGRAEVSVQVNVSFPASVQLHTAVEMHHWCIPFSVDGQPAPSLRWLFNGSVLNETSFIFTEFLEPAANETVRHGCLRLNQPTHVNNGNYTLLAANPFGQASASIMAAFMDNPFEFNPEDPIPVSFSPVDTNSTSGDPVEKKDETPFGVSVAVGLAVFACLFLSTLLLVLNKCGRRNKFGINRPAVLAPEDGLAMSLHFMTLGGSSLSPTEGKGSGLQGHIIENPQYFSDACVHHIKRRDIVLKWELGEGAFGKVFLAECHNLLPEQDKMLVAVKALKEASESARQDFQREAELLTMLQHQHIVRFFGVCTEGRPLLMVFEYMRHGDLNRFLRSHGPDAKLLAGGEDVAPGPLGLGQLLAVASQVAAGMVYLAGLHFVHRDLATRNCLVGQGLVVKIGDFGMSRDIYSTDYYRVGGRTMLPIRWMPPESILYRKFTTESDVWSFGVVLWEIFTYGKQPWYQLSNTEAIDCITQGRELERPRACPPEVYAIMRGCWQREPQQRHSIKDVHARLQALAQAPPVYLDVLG
UniProt P05771, whole entry: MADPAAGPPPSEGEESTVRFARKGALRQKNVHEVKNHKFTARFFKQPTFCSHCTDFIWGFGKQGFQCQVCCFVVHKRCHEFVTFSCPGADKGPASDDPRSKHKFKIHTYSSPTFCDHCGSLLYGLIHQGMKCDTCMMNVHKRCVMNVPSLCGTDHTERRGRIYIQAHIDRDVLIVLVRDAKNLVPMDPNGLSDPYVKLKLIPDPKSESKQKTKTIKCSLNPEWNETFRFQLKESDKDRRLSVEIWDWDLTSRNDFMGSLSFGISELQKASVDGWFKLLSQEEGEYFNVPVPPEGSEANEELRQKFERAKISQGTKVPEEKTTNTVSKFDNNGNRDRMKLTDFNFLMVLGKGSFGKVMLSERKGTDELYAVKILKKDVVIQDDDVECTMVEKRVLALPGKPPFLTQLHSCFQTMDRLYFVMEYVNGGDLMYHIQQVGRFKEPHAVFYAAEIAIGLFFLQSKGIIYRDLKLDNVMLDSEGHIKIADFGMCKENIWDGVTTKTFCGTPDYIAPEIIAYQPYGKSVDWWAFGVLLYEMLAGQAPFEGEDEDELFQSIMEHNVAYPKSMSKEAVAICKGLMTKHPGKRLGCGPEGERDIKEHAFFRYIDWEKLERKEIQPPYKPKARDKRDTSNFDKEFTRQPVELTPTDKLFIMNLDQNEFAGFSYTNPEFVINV

Assays:
[1] = target: Mitotic checkpoint serine/threonine-protein kinase BUB1 (Homo sapiens, UniProt O43683); test: Inhibition of BUB1 (unknown origin)
[2] = target: T1, Eukaryotic elongation factor 2 kinase (Homo sapiens, UniProt O00418); test: Inhibition of EEF2K (unknown origin)
T1 sequence (O00418 whole entry): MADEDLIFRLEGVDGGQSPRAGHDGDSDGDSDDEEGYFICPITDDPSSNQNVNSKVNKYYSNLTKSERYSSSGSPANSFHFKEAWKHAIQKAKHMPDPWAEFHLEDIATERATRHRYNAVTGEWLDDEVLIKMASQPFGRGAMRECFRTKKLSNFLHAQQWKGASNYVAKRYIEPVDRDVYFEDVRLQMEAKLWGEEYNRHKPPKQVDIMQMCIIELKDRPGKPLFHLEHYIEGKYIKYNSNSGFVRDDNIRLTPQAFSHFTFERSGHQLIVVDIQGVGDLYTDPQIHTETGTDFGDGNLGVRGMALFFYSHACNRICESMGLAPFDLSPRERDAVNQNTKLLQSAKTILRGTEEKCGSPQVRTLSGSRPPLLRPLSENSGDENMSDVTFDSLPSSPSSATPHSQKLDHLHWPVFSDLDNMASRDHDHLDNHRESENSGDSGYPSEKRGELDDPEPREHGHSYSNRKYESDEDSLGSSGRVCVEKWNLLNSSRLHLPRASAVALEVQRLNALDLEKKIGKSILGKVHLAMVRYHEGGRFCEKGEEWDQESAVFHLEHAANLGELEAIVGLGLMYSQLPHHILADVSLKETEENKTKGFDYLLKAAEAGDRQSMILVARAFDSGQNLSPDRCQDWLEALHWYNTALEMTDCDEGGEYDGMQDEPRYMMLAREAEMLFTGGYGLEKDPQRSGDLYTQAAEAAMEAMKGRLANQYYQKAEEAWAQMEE

[3] = target: Non-receptor tyrosine-protein kinase TYK2 (Homo sapiens, UniProt P29597); test: Inhibition of TYK2 (unknown origin)
[4] = target: Tyrosine-protein kinase JAK2 (Homo sapiens, UniProt O60674); test: Inhibition of JAK2 (unknown origin)
[5] = target: Mitogen-activated protein kinase 14 (Homo sapiens, UniProt Q16539); test: Inhibition of P38alpha (unknown origin)
[6] = target: Serine/threonine-protein kinase 26 (Homo sapiens, UniProt Q9P289); test: Inhibition of MST4 (unknown origin)
[7] = target: Aurora kinase B (Homo sapiens, UniProt Q96GD4); test: Inhibition of aurora kinase 2 (unknown origin)
[8] = target: T2, Aurora kinase A (Homo sapiens, UniProt O14965); test: Inhibition of aurora kinase 1 (unknown origin)
T2 sequence (O14965 whole entry): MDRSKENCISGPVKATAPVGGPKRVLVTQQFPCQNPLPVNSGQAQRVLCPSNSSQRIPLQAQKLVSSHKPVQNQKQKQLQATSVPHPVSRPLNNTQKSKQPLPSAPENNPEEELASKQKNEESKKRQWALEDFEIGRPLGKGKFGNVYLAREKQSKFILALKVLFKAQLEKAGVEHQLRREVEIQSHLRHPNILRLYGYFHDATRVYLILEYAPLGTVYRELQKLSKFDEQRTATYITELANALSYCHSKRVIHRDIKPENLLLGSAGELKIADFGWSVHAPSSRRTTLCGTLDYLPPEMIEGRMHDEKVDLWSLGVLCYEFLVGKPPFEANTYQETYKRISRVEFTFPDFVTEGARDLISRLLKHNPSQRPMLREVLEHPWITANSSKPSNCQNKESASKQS

[9] = target: Vascular endothelial growth factor receptor 2 (Homo sapiens, UniProt P35968); test: Inhibition of VEGFR2 (unknown origin)
[10] = target: T3, Tyrosine-protein kinase JAK3 (Homo sapiens, UniProt P52333); test: Inhibition of JAK3 (unknown origin)
T3 sequence (P52333 whole entry): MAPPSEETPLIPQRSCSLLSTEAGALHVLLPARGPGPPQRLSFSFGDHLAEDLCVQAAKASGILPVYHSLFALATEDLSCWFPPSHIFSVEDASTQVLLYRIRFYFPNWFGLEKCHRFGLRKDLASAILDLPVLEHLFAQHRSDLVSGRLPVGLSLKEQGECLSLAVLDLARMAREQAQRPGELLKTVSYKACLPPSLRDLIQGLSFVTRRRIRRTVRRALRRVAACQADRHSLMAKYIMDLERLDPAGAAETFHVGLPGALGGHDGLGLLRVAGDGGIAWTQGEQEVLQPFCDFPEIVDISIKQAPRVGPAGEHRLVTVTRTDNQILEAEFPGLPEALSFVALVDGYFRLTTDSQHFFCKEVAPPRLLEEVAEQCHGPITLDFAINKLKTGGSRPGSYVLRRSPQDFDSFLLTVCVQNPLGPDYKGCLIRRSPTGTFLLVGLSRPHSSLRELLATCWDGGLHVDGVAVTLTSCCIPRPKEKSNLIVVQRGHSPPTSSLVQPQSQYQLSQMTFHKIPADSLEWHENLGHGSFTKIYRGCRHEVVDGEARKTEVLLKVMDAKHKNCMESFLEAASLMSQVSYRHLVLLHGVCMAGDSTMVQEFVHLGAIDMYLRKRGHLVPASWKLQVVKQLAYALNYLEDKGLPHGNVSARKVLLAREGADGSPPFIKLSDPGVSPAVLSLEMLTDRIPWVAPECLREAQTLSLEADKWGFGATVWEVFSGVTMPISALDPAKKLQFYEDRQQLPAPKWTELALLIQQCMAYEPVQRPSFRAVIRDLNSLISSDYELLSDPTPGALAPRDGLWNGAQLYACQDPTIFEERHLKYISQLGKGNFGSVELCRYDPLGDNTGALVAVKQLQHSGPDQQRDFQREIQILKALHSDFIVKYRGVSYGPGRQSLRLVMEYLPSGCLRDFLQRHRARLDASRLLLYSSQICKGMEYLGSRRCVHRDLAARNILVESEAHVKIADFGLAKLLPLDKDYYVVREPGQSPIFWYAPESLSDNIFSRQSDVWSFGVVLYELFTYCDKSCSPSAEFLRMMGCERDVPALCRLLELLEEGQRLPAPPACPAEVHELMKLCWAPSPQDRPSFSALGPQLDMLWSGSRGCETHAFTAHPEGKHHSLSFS

[11] = target: Ephrin type-A receptor 2 (Homo sapiens, UniProt P29317); test: Inhibition of EphA2 (unknown origin)
[12] = target: High affinity nerve growth factor receptor (Homo sapiens, UniProt P04629); test: Inhibition of TRKA (unknown origin)
[13] = target: T4, Serine/threonine-protein kinase Nek6 (Homo sapiens, UniProt Q9HC98); test: Inhibition of NEK6 (unknown origin)
T4 sequence (Q9HC98 whole entry): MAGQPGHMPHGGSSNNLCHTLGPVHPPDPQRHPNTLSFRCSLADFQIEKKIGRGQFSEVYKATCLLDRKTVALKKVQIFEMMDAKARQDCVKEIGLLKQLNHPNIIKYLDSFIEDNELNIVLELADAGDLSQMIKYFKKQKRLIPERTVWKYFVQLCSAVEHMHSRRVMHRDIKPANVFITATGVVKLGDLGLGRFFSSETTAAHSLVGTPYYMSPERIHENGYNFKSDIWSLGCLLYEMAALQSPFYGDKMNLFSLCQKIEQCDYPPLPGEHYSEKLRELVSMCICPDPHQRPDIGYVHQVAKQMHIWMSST

[14] = target: Protein kinase C beta type (Homo sapiens, UniProt P05771); test: Inhibition of PKC-beta (unknown origin)

Measured: IC50

CC(C)(C)CNC(=O)CC1CNC(=O)c2cc(-c3ccsc3)cn21 (racemic)
> 10 µM: [1] | [2] | [3] | [4] | [5] | [6] | [7] | [8] | [9] | [10] | [11] | [12] | [13] | [14]
